Laboratory results from patent publication US20130059818A1, “CARBOSILANE DENDRIMERS AND THE USE THEREOF AS ANTIVIRAL AGENTS” (UNIVERSIDAD DE ALCALA DE HENARES (UAH), priority 2010, published 2013).

Experiment: Solubility in water
Conditions: qualitative, as isolated

COC(=O)CCN(CCC[Si](C)(C)CCC[Si](C)(CCC[Si](C)(C)CCCN(CCC(=O)OC)CCC(=O)OC)CCC[Si](C)(CCC[Si](C)(CCC[Si](C)(C)CCCN(CCC(=O)OC)CCC(=O)OC)CCC[Si](C)(C)CCCN(CCC(=O)OC)CCC(=O)OC)CCC[Si](CCC[Si](C)(CCC[Si](C)(CCC[Si](C)(C)CCCN(CCC(=O)OC)CCC(=O)OC)CCC[Si](C)(C)CCCN(CCC(=O)OC)CCC(=O)OC)CCC[Si](C)(CCC[Si](C)(C)CCCN(CCC(=O)OC)CCC(=O)OC)CCC[Si](C)(C)CCCN(CCC(=O)OC)CCC(=O)OC)(CCC[Si](C)(CCC[Si](C)(CCC[Si](C)(C)CCCN(CCC(=O)OC)CCC(=O)OC)CCC[Si](C)(C)CCCN(CCC(=O)OC)CCC(=O)OC)CCC[Si](C)(CCC[Si](C)(C)CCCN(CCC(=O)OC)CCC(=O)OC)CCC[Si](C)(C)CCCN(CCC(=O)OC)CCC(=O)OC)CCC[Si](C)(CCC[Si](C)(CCC[Si](C)(C)CCCN(CCC(=O)OC)CCC(=O)OC)CCC[Si](C)(C)CCCN(CCC(=O)OC)CCC(=O)OC)CCC[Si](C)(CCC[Si](C)(C)CCCN(CCC(=O)OC)CCC(=O)OC)CCC[Si](C)(C)CCCN(CCC(=O)OC)CCC(=O)OC)CCC(=O)OC
Solubility in water: insoluble in water
